Measurements reported in patent US11331328B2, “Compositions and methods for inhibiting antiapoptotic Bcl-2 proteins as anti-aging agents” (priority 2014, dated 2022).

Experiments:
[1] = tested on: senescent cells in TBI p16-3MR mice; test: Senescent cell clearance in TBI p16-3MR mice (luminescence, p16 mRNA); format: in vivo, mouse; details: 6 Gy TBI; 2 treatment cycles
[2] = tested on: senescent WI38 cells induced by expression of oncogenic Ras (Ras-SC); test: Cell viability, LD50 in oncogenic Ras-induced senescent WI-38 cells; format: cell-based, human; details: Table 2
Description: (§1) Human WI-38 fibroblasts (WI38 cells, #CCL-75™), human IMR-90 fibroblasts (IMR90 cells, #CCL-186™), human renal epithelial cells (REC cells, #PCS-400-012™) were obtained from ACTT (Manassas, Va., USA). Mouse embryonic fibroblasts (MEF) were isolated from mouse embryos as described^1. All cells were cultured in a complete medium (CM) (Dulbecco's Modified Eagle Medium supplemented with 10% fetal bovine serum [FBS], 100 U/ml penicillin, and 100 μg/ml streptomycin [all from Atlanta Biologicals, Norcross, Ga., and USA]) in a humidified incubator at 37° C. and 5% CO2. Low passages of WI-38 cells (<25), IMR-90 (<25), REC cells (<25) and MEF (<3) were used as non-senescent controls or for induction of senescence to avoid replicative senescence. To induce replicative senescence, WI-38 cells were subcultivated until cell division ceased after about 38 passages or 60 population doublings (FIG. 5)^2. […]
(§2) Flow cytometry: Non-senescent and senescent cells were seeded into wells of 24- or 48-well at about 70% of confluence. […] Viable cells (PI^− cells) were numerated by flow cytometry at a constant flow rate and calculated as a percentage of control cells treated with vehicle using the formula: percentage of control=(Ndrug/NC)×100, where Ndrug and NC represent the absolute number of PI^− viable cells of drug-treated and vehicle-treated cells, respectively. […]

[3] = tested on: IR-induced senescent WI-38 cells (SC); test: Cell viability (PI flow cytometry), LD50 in IR-induced senescent WI-38 cells; format: cell-based, human
[4] = tested on: senescent WI38 cells induced by replicative exhaustion (Rep-SC); test: Cell viability, LD50 in replicative senescent WI-38 cells; format: cell-based, human; details: Table 2
Description: as §1, §2

With CC1(C)CCC(c2ccc(Cl)cc2)=C(CN2CCN(c3ccc(C(=O)NS(=O)(=O)c4ccc(N[C@H](CCN5CCOCC5)CSc5ccccc5)c(S(=O)(=O)C(F)(F)F)c4)cc3)CC2)C1 [ABT263, navitoclax] the “SCs in lungs (luminescence, p16 mRNA)” value [1] was “reduced IR-induced SCs”, the “LD50 Ratio (NC/SC)” value [2] was 20.32 and the “LD50 Ratio (NC/SC)” value ([3]; Table 2, IR-SC) was 20.66. The “LD50 Ratio (NC/SC)” value ([3]; non-senescent vs IR-induced senescent WI-38 cells) was 20.6 and the “LD50 Ratio (NC/SC)” value [4] was 8.69.
